The subject of the series is CSCC[C@H](N)C(=O)O. Nature of the series: purified protein, by the assay type. Conditions: other: WT, L-Met varied, ATP 2 mM, 25 °C, pH 7.5.

In general, Km refers to the substrate concentration at which the rate is half of its maximum.

For “XcMetRS (WT) (Xanthomonas citri subsp. citri 306)”, the Km is 10.5 ± 0.9 µM.

Source of the values: publication PMC8165550, “Molecular basis for diaryldiamine selectivity and competition with tRNA in a type 2 methionyl-tRNA synthetase from a Gram-negative bacterium” (The Journal of Biological Chemistry, 2021).
